## Apparent affinities of Ab-14 variants for a coronavirus HR2 peptide

Reference: Engelhart et al. 2022, doi:10.1038/s41597-022-01779-4. File: FLAb, binding data.

Binding partner: SARS-CoV-2 spike HR2 peptide, sequence PDVDLGDISGINAS.

Each scFv is VH, three GGGGS repeats, VL, as in the parent Ab-14, and differs from it in the CDRs of the light chain only.
VH: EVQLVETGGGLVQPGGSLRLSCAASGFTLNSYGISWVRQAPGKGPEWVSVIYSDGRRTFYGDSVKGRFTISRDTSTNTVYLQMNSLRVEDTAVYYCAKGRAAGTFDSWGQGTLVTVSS
VL: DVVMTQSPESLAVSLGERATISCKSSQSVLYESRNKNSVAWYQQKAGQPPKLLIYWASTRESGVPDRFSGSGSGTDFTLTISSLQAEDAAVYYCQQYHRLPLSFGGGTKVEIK

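AAYL50 was designed without a model: most single CDR substitutions and a random sample of double and triple ones. The assay is AlphaSeq: two haploid yeast populations carry antibody and antigen on their surface. After mating in shaken culture at 30 °C for 16 h, diploids were selected and their barcode pairs sequenced. Scores were corrected for input abundance and mapped to Kd with protein pairs of known affinity run in the same pool. Mating was done three times.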

Variants are written as CDR1, CDR2 and CDR3 of the light chain (limits as in the source). Parent: KSSQSVLYESRNKNSVA, WASTRES, QQYHRLPLS. This list gathers variants with a substitution at L100 (VL, numbered from residue 1). Values are apparent Kd, the geometric mean of the replicates that gave a signal; lower means stronger binding. "nd" means that the variant was in the library but no mating with the target was seen in any replicate; the authors take this as a sign of poor binding, and no number exists. Three control strains display no target. For library AAYL50, 18% of the pairings with them gave a signal, with a median of 15 µM and one signal in twenty below 970 nM, so weak values seen in few replicates may be background. Parent in this assay: reference entry 4.4 nM, copy in this library 48 nM.

* KSSQSVLYESRNKNSIA, WWSTRES, QQYHRMPLS -> 13 µM (1 of 3 replicates)
* KSSQSVLYESRNKNSVA, WASTRES, QQYHRTPLS -> 38 nM (3 of 3 replicates)
* KSSQSVLYESRNKNSVA, WASTAES, MQYHRTPLS -> nd (0 of 3 replicates)
* KSSQSVLYEVRNKISVA, WASTRES, QQYHRWPLS -> nd (0 of 3 replicates)
* KSSASVLYESHNKNSVA, WASTRES, QQYHRTPLS -> 860 nM (3 of 3 replicates)
* KSSQAVLYNSRNKNSVA, WASTRES, QQYHRAPLS -> 330 nM (3 of 3 replicates)
* KSSQSVLYQSRIKNSVA, WASTRES, QQYHRSPLS -> 6.6 µM (2 of 3 replicates)
* KSSQSVLYESRNKNSVA, WASTRES, QQYHRMPLS -> 6.3 nM (3 of 3 replicates)
* KSSQSVVYESFNKNSVA, WASTRES, QQYHRMPLS -> 3.8 µM (3 of 3 replicates)
* KSSQSVLYESRNKNSVA, WASARES, QQYHRDPLS -> nd (0 of 3 replicates)
* KSSQSVLYESRNKNSVA, WAVTRES, QQYHRWPGS -> nd (0 of 3 replicates)
* KSSQLVLYESRNKNSVA, WASTHES, QQYHRYPLS -> 510 µM (2 of 3 replicates)
* KSSQAVLYESRNKNSVA, WASTRES, QQYHRCNLS -> 24 µM (2 of 3 replicates)
* ISSQSVLYESRNKNSVA, WASTRES, QQYHRVPRS -> nd (0 of 3 replicates)
* KSSQSVLYESRNKNSWY, WASTRES, QQYHRQPLS -> nd (0 of 3 replicates)
* KHSQSVLYESRNKNSRA, WASTRES, QQYHRKPLS -> nd (0 of 3 replicates)
* KSSQSVLYESRNKNSAA, WASTRES, QQYHRKVLS -> nd (0 of 3 replicates)
* KSSQSVSYESRNKNSVA, WASTRES, QQYHRKPLS -> nd (0 of 3 replicates)
* KNSCSVLYESRNKNSVA, WASTRES, QQYHRSPLS -> 910 nM (3 of 3 replicates)
* KSSESVLYESRNKNSVA, WASTREY, QQYHRNPLS -> nd (0 of 3 replicates)
* KSSQSVLYESRNKNSVA, WASTRES, QQSHRNPLS -> nd (0 of 3 replicates)
* KSSQSVWYESRNKNSVA, WASTRES, QQYHAIPLS -> nd (0 of 3 replicates)
* KSSQNVLYESRNKNSVA, WASLRES, QQYHRHPLS -> 20 nM (3 of 3 replicates)
* KSSQSVLYESRNKNPVA, WASTRES, QQYHRQPVS -> 11 nM (3 of 3 replicates)
* KSSQSVLYESRNKNSFA, WASTRES, QQYHRYPLQ -> nd (0 of 3 replicates)
* KSSQSVLYESRNKNSVA, QASTGES, QQYHRNPLS -> 7.9 µM (1 of 3 replicates)
* KSSQSVLAESYNKNSVA, WASTRES, QQYHRFPLS -> 9.9 nM (3 of 3 replicates)
* KSSQSVLYESRNKNSVA, WASTREK, QQYHRKPLD -> nd (0 of 3 replicates)
* KSSQSVLYESRNKNSVL, WASWRES, QQYHRVPLS -> nd (0 of 3 replicates)
* KSEQSVLYESRNKNLVA, WASTRES, QQYHRGPLS -> nd (0 of 3 replicates)
* KSSQSVLYEERNKNSVA, WASTRES, QQYHRPPLS -> 71 µM (1 of 3 replicates)
* KSSQSVLYESVNKNSVS, WASTRES, QQYHRRPLS -> nd (0 of 3 replicates)
* KSSQSVHYESRNKNSVA, WASTRES, QQLHRAPLS -> 110 µM (1 of 3 replicates)
* KSSQSVTYESRNKNSVA, WASTRES, QQYHRVPNS -> nd (0 of 3 replicates)
* KSSQSVLYESRNKNSVE, WASTRES, QQYHRPVLS -> 33 µM (2 of 3 replicates)
* KSSQSVLYESRNKNSVA, WASTRES, QQYHRHPLS -> 11 nM (3 of 3 replicates)
* KKSQSVLYESRNKNSVA, WASTRQS, QQYHRKPLS -> nd (0 of 3 replicates)
* KSSQSVLYESRNKNWVA, WASTRES, QQYHREPLS -> nd (0 of 3 replicates)
* KSSQSVLYESRNKNTVA, WASTRES, QQYCRPPLS -> 4.4 µM (3 of 3 replicates)
* KSQQSVLYESRNKNSVA, WASTRES, QQYHRYPQS -> nd (0 of 3 replicates)
* KSSQSVLYESRNKVEVA, WASTRES, QQYHRFPLS -> nd (0 of 3 replicates)
* KSSQSVLYESRNKNSVA, WASTRES, QQYHRHKLS -> nd (0 of 3 replicates)
* KSSQSVLYESRNKNSMA, WASTRES, QQYHRMPCS -> 69 nM (3 of 3 replicates)
* KSSQSVLYESRNKNSVA, ASSTRES, QQYHRWPLS -> nd (0 of 3 replicates)
* KSSQSVLYESRNKNCVA, WASTRTS, QQYHRVPLS -> nd (0 of 3 replicates)
* KSSQSVLYESNNKNSVA, WASTREA, QQYHRHPLS -> 5.5 nM (3 of 3 replicates)
* KSSQSYLYESRNKNSVA, WRSTRES, QQYHRVPLS -> 11 µM (1 of 3 replicates)
* KSSVSVLYESRNKNSVA, WASTRMS, QQYHRHPLS -> 49 µM (3 of 3 replicates)

The first 8 entries again:

| CDR-L1 | CDR-L2 | CDR-L3 | Kd (apparent) | detected |
|---|---|---|---|---|
| KSSQSVLYESRNKNSIA | WWSTRES | QQYHRMPLS | 13 µM | 1 of 3 |
| KSSQSVLYESRNKNSVA | WASTRES | QQYHRTPLS | 38 nM | 3 of 3 |
| KSSQSVLYESRNKNSVA | WASTAES | MQYHRTPLS | nd | 0 of 3 |
| KSSQSVLYEVRNKISVA | WASTRES | QQYHRWPLS | nd | 0 of 3 |
| KSSASVLYESHNKNSVA | WASTRES | QQYHRTPLS | 860 nM | 3 of 3 |
| KSSQAVLYNSRNKNSVA | WASTRES | QQYHRAPLS | 330 nM | 3 of 3 |
| KSSQSVLYQSRIKNSVA | WASTRES | QQYHRSPLS | 6.6 µM | 2 of 3 |
| KSSQSVLYESRNKNSVA | WASTRES | QQYHRMPLS | 6.3 nM | 3 of 3 |